{"source": "paper PMC6736568", "about": "“Discovery of Novel Anti-cryptosporidial Activities From Natural Products by in vitro High-Throughput Phenotypic Screening” (Frontiers in Microbiology, 2019)", "system": "HCT-8 host cells (Hs18S)", "conditions": "primary screening at 10 uM; for Cytotoxicity (%): from Hs18S ΔCT; for Hs18S ΔCT: treated vs control", "data": [{"substance": "MONENSIN SODIUM (monensin A is shown)", "values": [{"measurement": "Cytotoxicity (%)", "result": 15.7, "unit": "%"}, {"measurement": "Hs18S ΔCT", "result": 0.25}]}, {"substance": "ISOTECTORIGENIN, 7-METHYL ETHER", "values": [{"measurement": "Cytotoxicity (%)", "result": 3.0, "unit": "%"}, {"measurement": "Hs18S ΔCT", "result": 0.04}]}]}
